Source: patent US11242354B2, “4-sulfur substituted podophyllotoxin derivative and preparation method therefor and use thereof” (priority 2017, dated 2022)

Columns and labels:
HeLa = assay: MTT test for inhibition of tumor cells, HeLa; format: cell-based; conditions: read-out: IC50 HeLa, 48 h
[1] = test system: human normal hepatocytes HL-7702; assay: MTT test on human normal hepatocytes HL-7702; conditions: read-out: IC50 HL-7702; human normal hepatocytes HL-7702, MTT, 48 h
HepG2 = assay: MTT test for inhibition of tumor cells, HepG2; format: cell-based; conditions: read-out: IC50 HepG2, 48 h
Description: HepG2, HeLa cell lines and human normal liver cells HL-7702 in a logarithmic growth period were centrifuged at 1000 rpm for 5 min, and the supernatant was discarded, the cells were suspended with a suitable amount of culture medium to adjust the cell concentration to 3.5×10^4/well, the cells were seeded in 96-well plates, and the following experimental groups were set:
One negative control group; 28 test groups of the same concentration (i. e: Compound 1-28 groups); three control groups: podophyllotoxin group, 4 ? demethylepipodophyllotoxin group and etoposide group. […]

**Q.** For 4-Demethylepipodophyllotoxin, which IC50 (HeLa) is on record?
**A.** The IC50 was 63.1 µM.

**Q.** And the IC50 [1]?
**A.** The IC50 was 52.9 µM.

**Q.** What about the IC50 (HepG2) of the same substance?
**A.** Its IC50 is 49.3 µM.
